The values that follow come from US12435061B2 (priority 2020, dated 2025).

Amino acid sequences for entries named in this document (tags omitted). A change or cut given only in a name is not applied to a line headed by its entry.
UniProt Q8NET8: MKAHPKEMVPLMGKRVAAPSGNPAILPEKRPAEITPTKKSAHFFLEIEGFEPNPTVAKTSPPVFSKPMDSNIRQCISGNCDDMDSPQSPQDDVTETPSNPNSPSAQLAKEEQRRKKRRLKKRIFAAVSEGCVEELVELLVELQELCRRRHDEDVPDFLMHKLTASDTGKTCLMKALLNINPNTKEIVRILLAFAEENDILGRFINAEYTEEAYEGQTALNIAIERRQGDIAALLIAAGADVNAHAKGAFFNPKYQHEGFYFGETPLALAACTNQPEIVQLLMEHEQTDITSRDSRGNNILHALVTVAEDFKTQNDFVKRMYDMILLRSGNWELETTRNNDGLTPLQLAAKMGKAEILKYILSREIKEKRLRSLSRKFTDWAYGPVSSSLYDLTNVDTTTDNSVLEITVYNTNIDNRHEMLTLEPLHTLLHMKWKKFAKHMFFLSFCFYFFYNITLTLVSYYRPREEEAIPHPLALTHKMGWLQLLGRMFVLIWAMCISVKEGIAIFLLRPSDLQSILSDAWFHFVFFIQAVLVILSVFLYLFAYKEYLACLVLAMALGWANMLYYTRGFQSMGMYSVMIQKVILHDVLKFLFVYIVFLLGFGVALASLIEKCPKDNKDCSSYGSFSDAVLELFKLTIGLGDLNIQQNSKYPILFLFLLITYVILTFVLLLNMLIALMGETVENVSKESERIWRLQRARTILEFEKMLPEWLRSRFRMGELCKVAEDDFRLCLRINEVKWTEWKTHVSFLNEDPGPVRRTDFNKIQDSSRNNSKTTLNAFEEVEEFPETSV

The target in test [1] is T1, hTRPV3 (Homo sapiens (Human), UniProt Q8NET8). As to the kind of experiment: Whole-cell patch clamp, hTRPV3 Phase 1 / Phase 2 currents. To be noted: Phase 1 current, inward, read-out: hTRPV3 Patch P1 Inwd. The format is cell-based. The source says: Whole-cell patch clamp experiments permit the detection of currents through the TRPV3 channel in the cell line described above. A glass electrode is brought into contact with a single cell and the membrane is then ruptured, permitting control of the voltage of the cell membrane and measurement of currents flowing across the membrane using the amplifier attached to the electrode. A perfusion system permits control of the extracellular solution, including the addition of blockers and activators of the current. The current can be activated by heating this solution to 28° C. or warmer or by addition of 20 μM 2-APB to the solution.
TRPV3 cells were induced 20-48 hours, removed from growth plates, and replated at low density (to attain good single-cell physical separation) on glass coverslips for measurement. In some cases, cells were grown in low density overnight on glass coverslips. Patch clamp recordings were made in the whole-cell mode with a holding potential of −40 mV. Every 5 seconds, a voltage ramp was applied from −120 to +100 mV, 400 ms in duration. Currents elicited were quantified at −80 mV and +80 mV. […] External solution was Ringer's solution described above.
P1 refers to the Phase 1 current for human (h) TRPV3, and P2 refers to the Phase 2 current for human (h) TRPV3. […]
On the technique in general: In patch-clamp work, channel activity is measured electrically.

Test [2] addresses T1, hTRPV3. As to the kind of experiment: Semi-auto patch clamp recording in nHEK cells (WT or TRPV3-mu transfected). Format: cell-based. The procedure: Compounds were tested at room temperature using the whole-cell patch clamp technique with a HEKA EPC 10 usb patch-clamp amplifier (HEKA Elektronik, Germany). Output signals from the amplifier were digitized and recorded with PatchMaster (v2x90.5 HEKA Elektronik, Germany). For quality control, the minimum seal resistance was set at 100 MΩ, and the outward current was stabilized with at least 1 nA of rectifying current at +80 mV while the inward current was stabilized with at least 300 pA of rectifying current at −80 mV.
NPC-1 Chips (Nanion, Germany) were used to trap a single cell. For both WT or transfected cells, chips of the categories 2-3 MOhm and 3-5 MOhm were used. Chips are disposable and each recording required a new chip. […]
For WT nHEK cells, the “intermediate protocol” in the semi-automatic Port-a-Patch device software was selected based on the parameters: initial sealing, measured by resistance, and its ability to maintain sealing along with assay.
The procedure was started with the “Startup procedure” protocol that validates chip contact and adjusts offset, then after the system was ready, 5 μl of cells suspended in extracellular buffer was added and the intermediate protocol was automatically launched. […]
The sensitivity of reading was adjusted by changing the gain from 2.0 to 0.5. […]

For `O=C(c1ccc(F)cn1)N1CCC(c2ccc(-c3ccccc3C3CC3)cc2CO)C1` (centres unmarked) [Compound 2-72, (3-(2′-cyclopropyl-3-(hydroxymethyl)biphenyl-4-yl)pyrrolidin-1-yl)(5-fluoropyridin-2-yl)methanone], the IC50 at hTRPV3 [1] was less than 10 nM.
Regarding `O=C(c1ccc(F)cn1)N1CC[C@H](c2ccc(-c3ccccc3C3CC3)cc2CO)C1` (stereo in doubt) [KM-001-E1, [3-(2′-Cyclopropyl-3-hydroxymethyl-biphenyl-4-yl)-pyrrolidin-1-yl]-(5-fluoro-pyridin-2-yl)-methanone], the IC50 against hTRPV3 [2] was less than 10 nM.
